Tests used:
[1] = molecular target: α1β2γ2 GABAA receptor (α1 subunit) (Rattus norvegicus, UniProt P18508+P62813+P63138); set-up: gene Gabra1
[2] = molecular target: T1, α1β2γ2 GABAA receptor (α1 subunit), CYS mutant (Rattus norvegicus, UniProt P18508+P62813+P63138, P62813:F91C)
T1 construct: gene Gabra1

By UniProt entry, the sequences of proteins in these tests, tags left out. Where a name states a change or a piece, a line headed by the entry shows the natural chain unless it says otherwise. Residues count along the entry.
UniProt P18508, 39-466: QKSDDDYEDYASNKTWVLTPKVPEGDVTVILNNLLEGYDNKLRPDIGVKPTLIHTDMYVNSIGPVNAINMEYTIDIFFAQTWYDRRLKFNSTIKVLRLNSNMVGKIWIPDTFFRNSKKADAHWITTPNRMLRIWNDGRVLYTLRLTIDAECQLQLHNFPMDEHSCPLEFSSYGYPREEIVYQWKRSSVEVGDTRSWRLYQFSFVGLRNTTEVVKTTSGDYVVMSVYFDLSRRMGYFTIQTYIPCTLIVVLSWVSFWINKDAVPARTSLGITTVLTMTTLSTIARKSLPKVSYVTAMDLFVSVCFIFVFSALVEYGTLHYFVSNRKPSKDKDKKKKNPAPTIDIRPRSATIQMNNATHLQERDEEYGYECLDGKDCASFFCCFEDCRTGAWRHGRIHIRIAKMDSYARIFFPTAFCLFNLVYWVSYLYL
UniProt P62813, 28-455: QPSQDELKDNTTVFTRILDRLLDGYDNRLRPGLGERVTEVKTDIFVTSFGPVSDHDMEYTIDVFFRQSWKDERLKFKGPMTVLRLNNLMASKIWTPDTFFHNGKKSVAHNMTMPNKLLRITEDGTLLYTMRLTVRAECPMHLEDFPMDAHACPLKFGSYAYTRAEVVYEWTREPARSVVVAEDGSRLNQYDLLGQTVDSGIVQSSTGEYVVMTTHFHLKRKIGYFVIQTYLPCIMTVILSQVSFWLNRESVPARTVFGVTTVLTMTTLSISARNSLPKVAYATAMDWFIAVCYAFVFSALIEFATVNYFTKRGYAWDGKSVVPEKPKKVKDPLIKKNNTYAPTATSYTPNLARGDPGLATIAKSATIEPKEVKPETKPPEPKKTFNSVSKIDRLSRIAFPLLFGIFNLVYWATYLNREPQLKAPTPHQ
UniProt P62813, 28-455 F91C: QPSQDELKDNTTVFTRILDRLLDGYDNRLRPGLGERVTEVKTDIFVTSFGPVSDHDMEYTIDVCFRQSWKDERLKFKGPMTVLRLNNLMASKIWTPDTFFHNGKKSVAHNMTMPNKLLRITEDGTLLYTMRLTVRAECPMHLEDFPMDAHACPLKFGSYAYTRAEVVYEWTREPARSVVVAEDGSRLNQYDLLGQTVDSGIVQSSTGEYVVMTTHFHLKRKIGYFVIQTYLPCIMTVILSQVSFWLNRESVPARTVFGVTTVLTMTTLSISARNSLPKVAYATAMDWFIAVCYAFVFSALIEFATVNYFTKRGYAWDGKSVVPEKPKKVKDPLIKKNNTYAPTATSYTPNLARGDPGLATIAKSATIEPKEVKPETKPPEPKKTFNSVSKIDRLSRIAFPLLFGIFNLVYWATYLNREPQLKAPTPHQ
UniProt P62813, 28-455 F91A: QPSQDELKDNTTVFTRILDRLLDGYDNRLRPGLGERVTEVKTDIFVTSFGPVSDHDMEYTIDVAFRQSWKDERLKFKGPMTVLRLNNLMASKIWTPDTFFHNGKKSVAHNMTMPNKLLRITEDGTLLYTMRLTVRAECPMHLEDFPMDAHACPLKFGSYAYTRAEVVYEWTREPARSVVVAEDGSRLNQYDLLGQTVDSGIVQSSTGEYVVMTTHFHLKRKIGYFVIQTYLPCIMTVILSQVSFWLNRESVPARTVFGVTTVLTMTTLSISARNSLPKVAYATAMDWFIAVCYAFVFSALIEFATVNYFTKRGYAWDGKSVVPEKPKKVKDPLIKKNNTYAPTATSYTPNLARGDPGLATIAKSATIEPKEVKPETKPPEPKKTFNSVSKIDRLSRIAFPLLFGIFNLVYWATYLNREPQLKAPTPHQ
UniProt P63138, 26-474: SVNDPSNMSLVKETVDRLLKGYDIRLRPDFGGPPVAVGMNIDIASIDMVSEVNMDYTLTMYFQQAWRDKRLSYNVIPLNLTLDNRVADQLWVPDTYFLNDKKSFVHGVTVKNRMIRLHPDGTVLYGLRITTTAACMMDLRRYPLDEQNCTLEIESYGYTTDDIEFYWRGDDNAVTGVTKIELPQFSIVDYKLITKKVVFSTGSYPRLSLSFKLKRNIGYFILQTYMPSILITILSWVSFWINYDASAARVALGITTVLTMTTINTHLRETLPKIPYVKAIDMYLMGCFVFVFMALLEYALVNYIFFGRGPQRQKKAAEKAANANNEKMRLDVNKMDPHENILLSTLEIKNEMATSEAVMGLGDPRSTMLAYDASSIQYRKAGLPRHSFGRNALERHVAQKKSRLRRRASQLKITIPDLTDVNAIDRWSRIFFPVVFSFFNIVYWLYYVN

[3] = molecular target: α1β2γ2 GABAA receptor (α1 subunit), ALA mutant (Rattus norvegicus, UniProt P18508+P62813+P63138, P62813:F91A); set-up: gene Gabra1

CCN(CC)CCN1C(=O)CN=C(c2ccccc2F)c2cc(Cl)ccc21 [FLU, flurazepam]
whole-cell patch clamp and single-channel recording; potentiation of spontaneous [1]: Relative enhancement of spontaneous activity by FLU | whole-cell patch clamp and single-channel recording; potentiation of spontaneous [2]: FLU produced a similar effect on the activity of the WT and CYS mutants by significantly increasing both time constants | whole-cell patch clamp; potentiation of spontaneous and GABA-evoked currents at [3]: potentiation in both pretreatment and co-application protocols was significant

From PMC6121034 (Frontiers in Cellular Neuroscience, 2018)
